Antibody variant affinities, Ab-14 heavy chain, assay B

Binding partner: SARS-CoV-2 spike HR2 peptide, sequence PDVDLGDISGINAS.

Parent scFv Ab-14: VH joined to VL by a 15-residue (Gly4Ser)3 linker. Changes lie in the heavy chain CDRs alone.
VH: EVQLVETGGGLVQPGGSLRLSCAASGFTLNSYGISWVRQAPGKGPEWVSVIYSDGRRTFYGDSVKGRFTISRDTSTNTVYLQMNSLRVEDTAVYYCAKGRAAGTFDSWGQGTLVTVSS
VL: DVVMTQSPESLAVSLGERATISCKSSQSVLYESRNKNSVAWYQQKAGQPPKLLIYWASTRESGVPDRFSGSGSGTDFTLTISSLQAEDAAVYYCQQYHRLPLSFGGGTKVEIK

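The parent was found by panning a naive human phage display library on the peptide. Designed CDR sequences, proposed from the first random library and measured here. Their group label is 14H_En_HC (En: ensemble of fine-tuned language models; HC: hill climbing; a sequence that several methods proposed may carry one label only). Affinity was read by AlphaSeq, a pooled yeast mating assay with surface-displayed partners. After mating in shaken culture at 30 °C for 16 h, diploids were selected and their barcode pairs sequenced. The ratio of observed to expected reads was calibrated, replicate by replicate, on BCL2-family standards whose Kd was known from biolayer interferometry. The assay was run in six technical replicates.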

Variants are written as CDR1, CDR2 and CDR3 of the heavy chain (limits as in the source). Parent: GFTLNSYGIS, VIYSDGRRTFYGDSVK, GRAAGTFDS. Values are log10 of the apparent Kd in nM; lower means stronger binding. A pair that was not seen in that replicate is written "nd"; this usually means weak binding, but a binder can also be missed. As a blank, each scFv also met three strains without target: over all heavy chain designs, 1% of these pairings were detected, typically at 2.08 and seldom below 0.84. For each scFv, signals with the empty controls are counted beside the result, with their mean in brackets. The range of this assay differs from that of the first round, and the authors advise against merging the two. In the paper, a design with two or fewer of six values counts as a poor binder.

CDR-H1	CDR-H2	CDR-H3	replicates, log10 nM	empty controls
GFDLNEYGIS	VIYADGKRTAYIDSVK	GEIAGTFDS	-0.50 -0.44 -0.41 -0.39 -0.38 -0.18	0/18
GFNLNEYGIS	VIYADGRRTFYADSVK	GEHAGSFDV	-0.17 -0.10 -0.17 -0.92 -0.64 -0.52	0/18
GFDLNEYGIS	VIYADGMRTFYSDSVK	GNAGGTFDV	1.08 0.35 0.54 0.06 0.00 1.06	0/18
GFDLNEYGIS	VIYADGRRTFYHDSVK	GQIAGTFDQ	-0.69 -1.09 -1.02 -0.72 -1.21 -0.89	0/18
GFDLNEYGIS	VIYADGRRTQYIDSVK	GEIAGTFDQ	0.29 0.47 -0.14 -0.08 -0.28 0.22	0/18
GFNLNEYGIS	VIYADGRRTFYADSVK	GEAGGTFDV	0.53 0.19 0.11 -0.27 0.43 0.68	0/18
GFDLNEYGIS	VIYADGQRTAYADKVK	GENAGTFDI	0.01 -0.34 -0.19 -0.69 -0.52 -0.19	0/18
GFDLNEYGIS	VIYADGRRTFYIDSVK	GEAGGTFDT	-0.10 -0.06 -0.16 0.03 -0.09 0.23	0/18
GFDLNEYGIS	VIYADGRRTFYTDSVK	GGNAGTFDT	-1.02 nd -1.51 -0.77 -1.26 -0.71	0/18
GFDLNEYGIS	VIYADGRRTAYADSVK	GESAGTFDQ	-0.41 -0.41 -0.24 -0.57 -0.43 -0.47	1/18 (2.13)
GFDLDEYGIS	VIYADGQRTFYTDSVK	GGNAGTFDV	-0.22 -0.15 -0.69 -0.87 -0.54 -0.09	0/18
GFDINEYGIS	VIYADGRRTAYADSVK	GEAAGTFDK	0.45 -0.12 -0.16 -0.11 -0.04 -0.27	0/18
GFDLNEYGIS	VIYADGRRTFYTDSVK	GANAGTFDT	-0.68 -0.43 -0.82 -0.74 -0.72 -0.72	1/18 (3.04)
GFDLNEYGIS	VIYADGMRTQYIDSVK	GNLAGTFDS	-0.23 -1.04 -1.22 -1.96 -0.80 -0.96	0/18
GFDLESYGIS	VIYADGSRTAYADSVK	GNVAGTFDT	0.03 -0.12 -0.40 0.01 -0.05 0.10	1/18 (2.34)
GFNLDEYGIS	VIYADGRRTFYADSVK	GQVAGTFLL	0.53 -0.43 -0.76 -0.83 -0.74 -0.71	1/18 (0.66)
GFDLNEYGIS	VIYADGRRTFYADSVK	GETGGTFDV	-0.81 0.00 -1.08 -1.09 0.64 -0.11	0/18
GFDLEDYGIS	VIYADGRRTFYSDSVK	GEVAGTFDS	2.17 1.14 1.85 1.10 nd 1.07	0/18
GFDLNEYGIS	VIYADGRRTAYTDSVK	GHAAGTFDV	-0.20 -0.14 -0.53 -0.35 -0.73 -0.03	0/18
GFDLNEYGIS	VIYADGQRTAYADSVK	GKAAGTFDL	-0.55 -0.72 -0.49 -1.04 -0.69 -0.55	0/18
GFDLDEYGIS	VIYADGMRTFYADSVK	GNIAGTFLV	0.30 0.28 -0.11 -0.21 -0.11 0.15	1/18 (2.70)
GFDLNEYGIS	VIYADGMRTFYADSVK	GEIAGTFDF	-0.28 -0.32 -0.45 -0.78 -0.63 -0.02	0/18
GFDIDEYGIS	VIYADGRRTYYADSVK	GTNAGTFDV	0.66 -0.04 0.11 -0.03 0.16 0.14	1/18 (1.23)
GFDLNEYGIS	VIYADGMRTSYIDSVK	GNAAGTFDS	-0.18 -0.21 -0.24 -0.41 -0.62 -0.38	0/18
GFNLNEYGIS	VIYADGQRKFYADSVK	GNTAGTFDS	nd nd nd nd nd nd	0/18
GFDLNEYGIS	VIYADGRRTFYIDSVK	GEVAGTFDL	-0.24 -0.12 -0.24 -0.27 -0.34 0.07	0/18
GFNLNEYGIS	VIYADGRRTFYSDSVK	GEIAGTFDS	-0.57 -0.49 -0.68 -0.69 -0.95 -0.03	0/18
GFNLNEYGIS	VIYADGRRKFYADSVK	GNTAGTFDL	-0.61 -0.70 -0.80 -0.78 -0.76 -0.74	0/18
GFDLDEYGIS	VIYADGMRTFYIDSVK	GETAGTFDS	-0.27 -0.42 -0.60 -0.45 -0.55 -0.39	0/18
GFDLNEYGIS	VIYADGMRTFYTDSVK	GEFAGTFDM	nd nd nd 1.88 0.46 nd	0/18
GFQLDEYGIS	VIYADGRRTFYADSVK	GENAGTFDM	-0.45 -0.82 -0.97 -0.55 -0.84 -0.51	0/18
GFDLNEYGIS	VIYADGRRTFYSDSVK	GNVGGSFDI	0.46 0.03 -0.40 -0.06 0.42 -0.08	0/18
GFNLEDYGIS	VIYADGRRTFYADSVK	GHVAGTFDV	-0.37 -0.42 -0.05 -0.57 -0.53 -0.48	0/18
GFDLNEYGIS	VIYADGMRTAYIDSVK	GNAAGTFDV	-0.24 0.34 1.39 0.67 0.03 0.87	0/18
GFDLNEYGIS	VIYADGRRTAYSDSVK	GHIAGTFIQ	0.02 0.31 -0.26 0.45 -0.55 -0.23	0/18
GFDLNEYGIS	VIYADGRRTFYVDSVK	GQNAGTFDS	0.27 -0.41 -0.49 1.61 -0.74 -1.01	0/18
GFDLNEYGIS	VIYADGRRTFYADSVK	GEAAGTFDE	-0.20 0.98 0.31 0.51 0.21 -0.03	0/18
GFDLDEYGIS	VIYADGRRTFYADSVK	GEAAGTFVS	-0.41 -0.29 -0.11 -0.13 -0.12 -0.31	0/18
GFDLNEYGIS	VIYADGRRTAYSDSVK	GTNAGTFDS	-0.14 -0.58 -0.35 -0.43 -0.37 -0.34	0/18
GFDLNEYGIS	VIYADGRRTFYADSVK	GTAAGTFDQ	-0.45 -0.19 -0.28 -0.26 -0.25 -0.16	0/18
GFDLNEYGIS	VIYADGQRTAYTDSVK	GEAAGTFDL	-0.08 -0.20 -0.41 -0.36 -0.17 0.09	0/18
GFDLNEYGIS	VIYADGRRTFYADSVK	GNIAGTFNV	-0.24 -0.36 -0.51 -0.32 -0.56 -0.21	2/18 (3.03)

The last 3 entries again:

CDR-H1	CDR-H2	CDR-H3	replicates, log10 nM	empty controls
GFDLNEYGIS	VIYADGRRTFYADSVK	GTAAGTFDQ	-0.45 -0.19 -0.28 -0.26 -0.25 -0.16	0/18
GFDLNEYGIS	VIYADGQRTAYTDSVK	GEAAGTFDL	-0.08 -0.20 -0.41 -0.36 -0.17 0.09	0/18
GFDLNEYGIS	VIYADGRRTFYADSVK	GNIAGTFNV	-0.24 -0.36 -0.51 -0.32 -0.56 -0.21	2/18 (3.03)

Reference: Li et al. 2023, doi:10.1038/s41467-023-39022-2. File: FLAb, binding data.